For one compound, inhibition results are on record in PubChem BioAssay AID1117263 (The Scripps Research Institute Molecular Screening Center, 2014).

The chains behind the UniProt entries cited, without tags or fusion partners.
UniProt Q9HAT2, whole entry: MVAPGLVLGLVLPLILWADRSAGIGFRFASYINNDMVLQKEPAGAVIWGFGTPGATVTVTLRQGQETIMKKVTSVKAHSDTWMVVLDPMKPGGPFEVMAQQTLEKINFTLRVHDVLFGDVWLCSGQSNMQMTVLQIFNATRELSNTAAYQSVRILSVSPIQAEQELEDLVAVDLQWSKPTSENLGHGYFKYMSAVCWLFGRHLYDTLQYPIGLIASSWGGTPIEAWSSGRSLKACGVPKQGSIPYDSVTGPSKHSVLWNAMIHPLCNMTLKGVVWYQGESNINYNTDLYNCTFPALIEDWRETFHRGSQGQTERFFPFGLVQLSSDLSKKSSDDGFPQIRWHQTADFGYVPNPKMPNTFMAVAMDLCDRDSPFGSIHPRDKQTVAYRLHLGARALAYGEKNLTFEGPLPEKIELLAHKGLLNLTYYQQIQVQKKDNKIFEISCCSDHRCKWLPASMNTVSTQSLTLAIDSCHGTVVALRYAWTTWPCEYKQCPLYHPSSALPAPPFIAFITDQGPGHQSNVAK

SMILES strings stand for the structures. This is a selection; strong and weak results do not stand in their true shares. The source made the active and inactive calls.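 Rule for the calls: active = mean inhibition of the replicates above the hit cutoff set in the primary screen (cut at about 17% in these data); inactive = the rest.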

The assay addresses Sialate O-acetylesterase (Homo sapiens) (UniProt Q9HAT2). Nature of the assay: human SIAE inhibitors, retest, confirmation, biochemical, fluorescence polarization, FP-Rh probe, triplicate (AID 1117263).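 Note: 0% = SIAE with DMSO and probe and 100% = probe without SIAE; inhibitors lower polarization as more probe stays unbound to SIAE.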 The note with it: SIAE FP-Rh activity-based probe, at 9.66 µM, hits give high values.
`CCC(c1nnnn1C1CCCC1)N1CCC(n2c(=O)[nH]c3ccccc32)CC1` (stereo unspecified): the inhibition is inactive: 4.88%.

One may read the inhibition as the relative decrease from the control value, in per cent.
